## Yeast mating assay 2: variants of the scFv Ab-91

From the AlphaSeq antibody data of Engelhart et al. 2022 (doi:10.1038/s41597-022-01779-4), copy in the FLAb collection.

The target is the same throughout: PDVDLGDISGINAS, from the HR2 region of SARS-CoV-2 spike.

Parent scFv Ab-91: VL joined to VH by a (GGGGS)3 linker. Changes lie in the heavy chain CDRs alone.
VL: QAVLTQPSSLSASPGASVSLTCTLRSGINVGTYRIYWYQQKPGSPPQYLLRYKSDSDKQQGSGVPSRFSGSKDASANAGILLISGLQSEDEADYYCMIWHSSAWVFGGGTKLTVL
VH: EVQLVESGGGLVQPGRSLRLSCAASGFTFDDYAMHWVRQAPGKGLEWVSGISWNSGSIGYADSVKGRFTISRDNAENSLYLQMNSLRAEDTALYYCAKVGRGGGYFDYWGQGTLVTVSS

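Phage display of a naive human antibody library on the peptide gave the parent. AAYL51 was designed without a model: most single CDR substitutions and a random sample of double and triple ones. The assay is AlphaSeq: two haploid yeast populations carry antibody and antigen on their surface. After mating in shaken culture at 30 °C for 16 h, diploids were selected and their barcode pairs sequenced. Scores were corrected for input abundance and mapped to Kd with protein pairs of known affinity run in the same pool. Each pool was mated in three replicate cultures.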

The parent's heavy chain CDRs are GFTFDDYAMH, GISWNSGSIGYADSVK, VGRGGGYFDY; each variant's own CDRs replace them letter for letter.
Affinities are written as log10 Kd with Kd in nM; a lower number is a better binder.
A mean of the replicates is given; it leaves out those without a signal.
"ND" marks a missing value. The strain was present, yet no cells mated with the target were sequenced in that replicate, which points to weak or no binding.
In this assay the parent's reference entry averaged 1.86; its copy inside this library read 0.88.
Background: pairings of library AAYL51 with three empty control strains gave a value in 21% of cases (median 4.54, 5th percentile 3.26). Values in that range, when seen in few replicates, are hard to tell from nonspecific mating. For each scFv, signals with the empty controls are counted beside the result, with their mean in brackets.

CDR-H1	CDR-H2	CDR-H3	log10 Kd, replicates	mean log10 Kd (nM)	empty controls
GKTFDDYAMH	GISWNRGSIGYADSVK	VGRQGGYFDY	ND ND ND	ND	0 of 9
GFTFDDYLMH	GISWNSGSIGYADSVK	VGRGGPYFMY	ND ND 4.78	4.78	3 of 9 (4.92)
GFTFDDYLMH	GISWNSSSIGYAVSVK	VGRGGGYFDY	ND ND ND	ND	1 of 9 (5.24)
GFTYDDYLMH	GISWNSGSIGYVDSVK	VGRGGGYFDY	5.11 ND 5.16	5.14	3 of 9 (5.66)
GFTFDDYAMH	GISWNSGFFGYADSVK	VGRGGGTFDY	ND ND ND	ND	2 of 9 (3.54)
GFTFDDYAMH	GIYWRSGSIGYADSVK	VGRGGGLFDY	ND ND ND	ND	1 of 9 (2.95)
GFFFDDYAMH	GQSWNSGSIGYADSVK	VGRGGGYFDK	3.53 5.78 ND	4.66	2 of 9 (4.40)
GFTFDDYAMH	GISWNSGSIGYAFSGK	VGRGGHYFDY	ND ND ND	ND	3 of 9 (4.60)
GFTFDDYAMH	GISWNWMSIGYFDSVK	VGRGGGYFDY	ND ND ND	ND	0 of 9
GFTFDDYAMH	GISWNYPSIGYADSVK	VGRGGGYGDY	ND ND ND	ND	2 of 9 (4.41)
GFTFDDYAMV	GISWNQGSIGYADSVK	VGRGGGRFDY	ND ND 4.82	4.82	5 of 9 (4.16)
GFTFDDYAMH	GISWNSGSIGEADSVK	RGRGGGYFDP	ND ND ND	ND	0 of 9
GFTFDDYAMH	FISWNSGSIGYADSVK	VGRGGRCFDY	ND ND ND	ND	0 of 9
GWAFDDYAMH	GISWNSGSIGYADSVK	VGEGGGYFDY	ND ND ND	ND	1 of 9 (3.17)
GFTFDDYAFH	GISWNLGSIGYADSVK	VGRGGGYFDY	4.65 4.64 ND	4.64	3 of 9 (4.82)
GETFDDYAMH	GISWNSGSIKYADSVK	VGRGGGYWDY	4.27 ND 4.52	4.40	3 of 9 (4.30)
GFTFDDYAMH	GISWNSGSIGSADSHK	VGRGGGYFDY	4.49 ND ND	4.49	1 of 9 (4.51)
GFTFNDYAMH	GISWNSGSIGVADSVI	VGRGGGYFDY	1.79 1.67 1.48	1.65	4 of 9 (4.43)
GFTFDKYAMH	GISWNSGSIGYADSVK	VGRGGGWFDY	1.97 1.98 1.33	1.76	2 of 9 (4.67)
GFTFDDYAMH	GISWNSGTINYADSVK	VGRGGGYFCY	ND ND ND	ND	0 of 9
GFTFDDYAMH	GISWNSGSIGYADAVK	IWRGGGYFDY	1.07 1.15 0.59	0.94	3 of 9 (4.30)
GFHFDDYAMH	QISWNSGSIGYADSVK	VGRGGDYFDY	ND ND ND	ND	0 of 9
GFTFDDYAMH	GISWNYGSIGYADSVK	VGYRGGYFDY	5.23 ND ND	5.23	3 of 9 (4.46)
GATFDDYAMH	GISRNIGSIGYADSVK	VGRGGGYFDY	5.22 ND ND	5.22	6 of 9 (4.97)
GTTFDDYAMH	GISWNSGSIIYADSVK	VGRGNGYFDY	ND 3.82 ND	3.82	2 of 9 (4.57)
GMTHDDYAMH	GISWNHGSIGYADSVK	VGRGGGYFDY	4.57 ND ND	4.57	2 of 9 (4.06)
RFTFDDDAMH	GISWNSGSIGYADSVV	VGRGGGYFDY	ND ND ND	ND	0 of 9
GFVFDDYAMH	GISWNSGCEGYADSVK	VGRGGGYFDY	2.37 2.32 2.23	2.31	7 of 9 (4.85)
GFTFDGYAMA	GISWLSGSIGYADSVK	VGRGGGYFDY	ND ND ND	ND	1 of 9 (3.43)
GFTFSDYAMH	GKSWNSGSIGYADSVG	VGRGGGYFDY	ND 3.61 ND	3.61	1 of 9 (3.67)
GFTFDDYAMH	GISWNSMSIGYADSVK	VGRGGGDIDY	ND ND ND	ND	0 of 9
GFRFDDYARH	GISWNSGDIGYADSVK	VGRGGGYFDY	0.57 0.80 -0.02	0.45	2 of 9 (4.21)
GFTFDDYATE	GISWNSGSIGYAQSVK	VGRGGGYFDY	6.16 5.28 4.49	5.31	5 of 9 (5.36)
GFTFDMYAMH	CISWNSGSIGYADSVK	VGRGGQYFDY	5.18 ND ND	5.18	2 of 9 (4.31)
GFTFDDYAMH	GISWNSGYIGYADSVK	VGRGWGYFDY	5.16 5.44 5.30	5.30	5 of 9 (5.50)
GFTTDDCAMH	GISWNSGSICYADSVK	VGRGGGYFDY	3.54 ND ND	3.54	3 of 9 (3.59)
GFTFDDYAMH	GISKNVGSIMYADSVK	VGRGGGYFDY	5.02 6.84 4.50	5.46	4 of 9 (4.46)
GFTFDDYAMH	GISWKSGSIGYAGSVK	VGRGGGDFDY	ND ND ND	ND	1 of 9 (4.37)
GFTFDDYASH	GDSWNSGSVGYADSVK	VGRGGGYFDY	ND ND ND	ND	0 of 9
GFTFDDYAMH	GIYWNSHGIGYADSVK	VGRGGGYFDY	4.98 ND 5.68	5.33	4 of 9 (4.38)
YFTFDDYAMH	GISWNSGSIIYADSVK	VGRGVGYFDY	ND ND ND	ND	0 of 9
GFTFADYAMH	GISWNSGSIGYVDSVK	VGRGGYYFDY	5.04 ND 5.08	5.06	3 of 9 (3.84)
GFTFDDYAMH	GISWNSGSIGYKDSVK	VGRGMGYHDY	ND ND ND	ND	0 of 9

The closing 7 entries, repeated:

CDR-H1	CDR-H2	CDR-H3	log10 Kd, replicates	mean log10 Kd (nM)	empty controls
GFTFDDYAMH	GISKNVGSIMYADSVK	VGRGGGYFDY	5.02 6.84 4.50	5.46	4 of 9 (4.46)
GFTFDDYAMH	GISWKSGSIGYAGSVK	VGRGGGDFDY	ND ND ND	ND	1 of 9 (4.37)
GFTFDDYASH	GDSWNSGSVGYADSVK	VGRGGGYFDY	ND ND ND	ND	0 of 9
GFTFDDYAMH	GIYWNSHGIGYADSVK	VGRGGGYFDY	4.98 ND 5.68	5.33	4 of 9 (4.38)
YFTFDDYAMH	GISWNSGSIIYADSVK	VGRGVGYFDY	ND ND ND	ND	0 of 9
GFTFADYAMH	GISWNSGSIGYVDSVK	VGRGGYYFDY	5.04 ND 5.08	5.06	3 of 9 (3.84)
GFTFDDYAMH	GISWNSGSIGYKDSVK	VGRGMGYHDY	ND ND ND	ND	0 of 9